Laboratory results taken from article PMC4401318 (ACS Chemical Neuroscience, 2015).

Sequences of proteins named here, by UniProt entry; tags and fusion partners are left off. A change or cut given only in a name is not applied to a line headed by its entry.
UniProt P41146: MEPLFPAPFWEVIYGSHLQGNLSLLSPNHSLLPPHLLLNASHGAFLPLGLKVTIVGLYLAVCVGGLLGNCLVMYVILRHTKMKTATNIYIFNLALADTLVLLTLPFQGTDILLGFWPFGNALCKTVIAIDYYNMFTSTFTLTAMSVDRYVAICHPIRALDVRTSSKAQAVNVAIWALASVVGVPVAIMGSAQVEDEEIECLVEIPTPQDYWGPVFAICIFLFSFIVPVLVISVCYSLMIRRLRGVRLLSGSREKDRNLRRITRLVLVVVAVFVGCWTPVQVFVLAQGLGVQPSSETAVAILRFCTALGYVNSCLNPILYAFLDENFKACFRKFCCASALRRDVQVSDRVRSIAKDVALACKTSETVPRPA
UniProt P35372, whole entry: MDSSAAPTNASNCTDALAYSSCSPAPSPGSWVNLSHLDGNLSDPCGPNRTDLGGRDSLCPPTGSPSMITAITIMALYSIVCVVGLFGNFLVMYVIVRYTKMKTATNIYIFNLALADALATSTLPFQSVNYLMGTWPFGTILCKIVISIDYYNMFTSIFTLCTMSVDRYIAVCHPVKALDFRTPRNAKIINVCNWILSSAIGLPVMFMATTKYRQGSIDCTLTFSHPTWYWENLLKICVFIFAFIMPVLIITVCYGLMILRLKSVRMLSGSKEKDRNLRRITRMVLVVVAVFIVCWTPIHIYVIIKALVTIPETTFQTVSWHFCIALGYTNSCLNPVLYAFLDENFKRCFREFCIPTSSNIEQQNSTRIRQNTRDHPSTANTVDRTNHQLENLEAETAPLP
UniProt P41143, whole entry: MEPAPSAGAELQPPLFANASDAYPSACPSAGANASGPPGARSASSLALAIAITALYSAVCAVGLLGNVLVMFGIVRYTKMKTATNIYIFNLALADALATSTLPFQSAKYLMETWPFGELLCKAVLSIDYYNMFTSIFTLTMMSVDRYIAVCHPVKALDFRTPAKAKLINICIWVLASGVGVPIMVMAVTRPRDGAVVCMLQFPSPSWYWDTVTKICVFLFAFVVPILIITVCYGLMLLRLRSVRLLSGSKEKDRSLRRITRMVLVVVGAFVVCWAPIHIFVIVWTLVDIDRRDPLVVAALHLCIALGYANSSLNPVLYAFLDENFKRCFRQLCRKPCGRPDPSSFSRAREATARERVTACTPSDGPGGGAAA

How the values were obtained:
[1] = biological target: NOP receptor (Homo sapiens, UniProt P41146); experiment: [35S]GTPγS binding stimulation; format: biochemical
[2] = biological target: T1, MOP receptor (Homo sapiens, UniProt P35372); experiment: Radioligand competition binding, MOP
[3] = biological target: T1, MOP receptor; experiment: biochemical
[4] = biological target: DOP receptor (Homo sapiens, UniProt P41143); experiment: [35S]GTPγS binding stimulation; format: biochemical

Ki [2] [µM]	Structure (SMILES)	EC50 [1] [µM]	EC50 [3] [µM]	EC50 [4] [µM]
	CC(C)[C@@H](CN1CCC(c2cccc(O)c2)CC1)NC(=O)[C@H]1Cc2ccc(O)cc2CN1 [Compound 6, (R)-7-Hydroxy-N-((S)-1-(4-(3-hydroxyphenyl)piperidin-1-yl)-3-methylbutan-2-yl)-1,2,3,4-tetrahydroisoquinoline-3-carboxamide]	> 10		
0.015 ± 0.00244	CC(C)[C@@H](CN1CCC(c2ccccc2)CC1)NC(=O)[C@H]1Cc2ccc(O)cc2CN1 [Compound 8, (R)-7-Hydroxy-N-((S)-3-methyl-1-(4-phenylpiperidin-1-yl)butan-2-yl)-1,2,3,4-tetrahydroisoquinoline-3-carboxamide]		> 10	
	CC(C)[C@@H](CN1CC[C@@](C)(c2cccc(O)c2)[C@@H](C)C1)NC(=O)[C@H]1Cc2ccc(O)cc2CN1 [JDTic, (3R)-7-hydroxy-N-((1S)-1-{[(3R,4R)-4-(3-hydroxyphenyl)-3,4-dimethyl-1-piperidinyl]methyl}-2-methylpropyl)-1,2,3,4-tetrahydro-3-isoquinolinecarboxamide, reference compound]		> 10	> 10
